Protein sequences, listed by entry. Tags and fused reporters are not part of them.
UniProt P09874, whole entry: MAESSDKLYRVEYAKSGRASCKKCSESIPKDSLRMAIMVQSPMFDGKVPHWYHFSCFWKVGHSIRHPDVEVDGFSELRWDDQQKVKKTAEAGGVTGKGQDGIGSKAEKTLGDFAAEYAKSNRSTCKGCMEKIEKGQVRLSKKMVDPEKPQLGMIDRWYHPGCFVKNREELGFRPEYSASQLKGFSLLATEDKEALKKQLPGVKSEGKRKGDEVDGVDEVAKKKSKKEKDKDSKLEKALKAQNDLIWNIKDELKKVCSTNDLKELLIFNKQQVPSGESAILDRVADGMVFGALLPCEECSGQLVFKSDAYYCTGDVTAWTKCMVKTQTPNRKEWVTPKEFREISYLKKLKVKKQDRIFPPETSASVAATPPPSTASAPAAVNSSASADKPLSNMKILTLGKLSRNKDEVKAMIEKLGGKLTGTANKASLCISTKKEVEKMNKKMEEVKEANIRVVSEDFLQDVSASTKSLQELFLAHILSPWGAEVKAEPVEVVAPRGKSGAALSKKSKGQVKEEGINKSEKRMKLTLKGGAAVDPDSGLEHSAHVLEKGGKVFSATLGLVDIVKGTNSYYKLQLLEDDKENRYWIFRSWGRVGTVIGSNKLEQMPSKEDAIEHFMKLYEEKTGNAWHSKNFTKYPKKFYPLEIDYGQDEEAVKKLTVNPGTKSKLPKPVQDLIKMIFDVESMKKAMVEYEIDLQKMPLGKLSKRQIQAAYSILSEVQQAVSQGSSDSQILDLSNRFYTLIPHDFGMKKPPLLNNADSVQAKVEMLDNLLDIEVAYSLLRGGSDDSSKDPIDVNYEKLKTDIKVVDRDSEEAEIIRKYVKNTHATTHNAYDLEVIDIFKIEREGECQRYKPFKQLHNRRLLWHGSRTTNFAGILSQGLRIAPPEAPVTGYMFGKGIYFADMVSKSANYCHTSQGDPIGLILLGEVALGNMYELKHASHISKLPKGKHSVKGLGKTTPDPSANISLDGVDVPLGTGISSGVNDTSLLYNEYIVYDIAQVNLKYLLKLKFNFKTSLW

According to patent US8877944B2, “3-oxo-2,3-dihydro-1H-isoindole-4-carboxamides as PARP inhibitors” (Nerviano Medical Sciences S.R.L., priority 2009, dated 2014):

What was measured:
[1] = system: PAR formation in HeLa cells; experiment: Cellular PAR assay: inhibition of hydrogen peroxide induced PAR formation; conditions: Homo sapiens, read-out: PAR assay IC50
PARP-1 FL = PARP-1 FL (Homo sapiens (Human), UniProt P09874); experiment: Fluorescence polarization probe displacement assay, PARP-1; type: binding; conditions: for DC50: half maximal displacement concentration

Row | IC50 [1] [nM] | Kd (PARP-1 FL; compound P3 as the probe, 100 nM PARP-1) [nM] | DC50 (PARP-1 FL) [nM] | Kd (PARP-1 FL; compound P1 as the probe, 250 nM PARP-1) [nM] | SMILES
1 | 1900 | 80 | < 250 | – | NC(=O)c1ccc(F)c2c1C(=O)N(C1CCN(C3CCC(F)(F)CC3)CC1)C2 [Compound 101, 2-[1-(4,4-Difluorocyclohexyl)-piperidin-4-yl]-7-fluoro-3-oxo-2,3-dihydro-1H-isoindole-4-carboxamide]
2 | 3950 | – | < 250 | 40 | NC(=O)c1cccc2c1C(=O)N(C1CCN(Cc3ccc(F)cc3)CC1)C2 [Compound 11, 2-[1-(4-Fluorobenzyl)piperidin-4-yl]-3-oxo-2,3-dihydro-1H-isoindole-4-carboxamide]
